Experimental data reported in patent publication US10548982B2, “Reversible covalent linkage of functional molecules” (priority 2009, dated 2020).
Entries after “also recorded” stand apart in the source; their conditions may differ.

Test: glutathione-mediated cleavage of adduct at physiologically relevant glutathione concentration (LC-MS)
Assay type: physicochemical
Conditions: glutathione 5 mM (5 μL of 100 mM), 0° C., 4 h, pH 8.0

Q: With “GrB2-SH2 Domain L111C/Dibromomaleimide/Glutathione Adduct” as the substance, how does the “cleavage of adduct regenerating GrB2-SH2 domain L111C” value read?
A: Its value is “GrB2-SH2 domain L111C was the only protein species present; also recorded: quantitative yield”.
